{"source": "patent US4120955A", "about": "“Method for production of kanamycin C and its derivatives” (Zaidan Hojin Biseibutsu Kagaku Kenkyu Kai, priority 1976, dated 1978)", "key": {"[1]": {"system": "resistant bacteria which produce 3'-phosphotransferases", "details": "known deoxykanamycin B derivatives; cited from earlier work"}, "in vivo": {"assay": "in vivo", "details": "mouse, iv"}}}
{"smiles": "NCC1CCC(N)C(OC2C(N)CC(N)C(OC3OC(CO)C(O)C(N)C3O)C2O)O1", "note": "(centres unmarked) [DKB, 3',4'-dideoxykanamycin B, reference compound]", "values": [{"measurement": "activity against resistant bacteria producing aminoglycoside 3'-phosphotransferases", "setting": "[1]", "value": "active"}, {"measurement": "LD50", "setting": "in vivo", "value": 109, "unit": "mg/kg"}]}
